The sample as a whole holds a higher share of hits than the screen did.
GIV Gai3 FP: GIV-Galpha-i interaction inhibition. P08753. Galpha-i3/FITC-GIV peptide fluorescence polarization, 90 min; active compounds read low; scaled: aluminum fluoride 0%, vehicle 100%. percent of control (FP), % (test concentration not listed). 210,000 compounds, 0.42% hits. AID 1224905;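 active = replicate mean at 85% of control or lower, very high polarization wells dropped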;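 also: lower values mean more displacement of the GIV peptide from Galpha-i3; wells of about 15 µL received 100 nL stock; the first replicate is given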
GIV-Gai FP conf: GIV-Galpha-i3 inhibition, FP confirmation. 38% of 580 active. AID 1259350. fluorescence polarization, mP at 100 µM. shares compounds with GIV Gai3 FP. FITC-GIV peptide binding to Galphai3, fluorescence polarization; stronger effect = lower value;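 active = inhibition score of 15 or more, meaning 100 minus mean polarization as percent of control over three replicates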
GIV Gai AS conf: GIV-Galpha-i3 inhibition, AlphaScreen confirmation; shares compounds with GIV Gai3 FP; AID 1259351; 39% of 580 active; AlphaScreen counts at 100 µM; AlphaScreen Galphai3-GIV binding, purified proteins, 90 min; stronger effect = lower value;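 active = inhibition score at or above a set limit, where the score is 100 minus the three-replicate mean percent of control signal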
Hits are given with their value; n = inactive.

SMILES	GIV Gai3 FP	others
CN1C(=O)C(C)(C)c2cc(S(=O)(=O)N3CCC(CCN4CCOCC4)CC3)ccc21	n
CCc1ccc(NC(=O)CSC2=C(C#N)C(c3ccccc3)C(C(=O)Nc3ccccc3OC)=C(C)N2)cc1 (stereo not given)	n
Cc1c(C(=O)NCc2ccccc2)c(C)n2cnn(CC(=O)NC3CCCCC3)c(=O)c12	n
CCN(CC)c1ccc(NC(C)=O)c(C)c1	n
CCN(CC)c1ccc(-n2nc3cc(C)c(N)cc3n2)cc1	n
CCN(CC)c1ccc(N)c(C)c1	41.3	GIV-Gai FP conf=n;GIV Gai AS conf=1482
O=c1oc(/C=C/c2ccccc2)nc2sc3c(c12)CCCC3	n
O=C(N=Nc1c(O)[nH]c2ccccc12)c1cccnc1	n
O=C(N=Nc1c2ccccc2c2nc3no[nH]c3nc12)c1ccccc1O	77.3	GIV-Gai FP conf=n;GIV Gai AS conf=12405
O=C(N=Nc1c(O)[nH]c(=O)[nH]c1=O)c1ccccn1	n
Cc1cc(C)c2c(c1)CC(C)(C)c1nc3ccccc3nc1-2	n
COC(=O)C1=CN(Cc2ccc(OC)c(OC)c2)C=C(C(=O)OC)C1c1ccc(Cl)c([N+](=O)[O-])c1	n
CC(=O)n1cc(/C=C2\N=C(c3cccc4ccccc34)OC2=O)c2cc(Br)ccc21	n
CC(=O)n1c(/C=C2/N=C(c3cccs3)OC2=O)cc2ccccc21	n	GIV-Gai FP conf=n;GIV Gai AS conf=n
COc1ccc(C2=N/C(=C/c3cc4ccccc4n3C(C)=O)C(=O)O2)cc1Br	n
CCOC(=O)C1CCCN(C(=O)Cn2c(=O)c3ccccc3n3c(=S)sc(-c4ccccc4F)c23)C1 (stereo not given)	n
CCOC(=O)C1CCCN(C(=O)Cn2c(=O)c3ccccc3n3c(=S)sc(-c4cccc(Cl)c4)c23)C1 (stereo not given)	n
CC1CCN(C(=O)Cn2c(=O)c3ccccc3n3c(=S)sc(-c4ccccc4F)c23)CC1	81.3	GIV-Gai FP conf=n;GIV Gai AS conf=n
CCOC(=O)c1cc(NC(=O)c2ccc(Cl)cc2)ccc1N1CCOCC1	n
O=C(c1ccccc1)c1ccccc1C(=O)N1CCN(c2ccccc2)CC1	n
O=C(c1ccccc1)c1cccc2c1NCC2	81.0	GIV-Gai FP conf=n;GIV Gai AS conf=n
O=C(c1ccccc1)c1ccccc1C(=O)N1CCCC1	n
Cc1ccc(S(=O)(=O)N(Cc2c(F)cccc2Cl)c2nc3nc(C)c(Cl)c(C)n3n2)cc1	n
Cc1nc(SC2CC(=O)N(c3ccccc3)C2=O)c(C#N)c(C)c1C (stereo not given)	n
COc1ccccc1CNC(=O)CSc1nc2ccccc2n1S(=O)(=O)c1ccc(Br)cc1	n
SMILES	GIV Gai3 FP	others
CC(C)c1ccc(S(=O)(=O)Nc2cc(C(=O)O)cnc2N2CCCC2)cc1	n
O=C(O)c1cnc(N2CCOCC2)c(NS(=O)(=O)c2ccccc2)c1	49.0	GIV-Gai FP conf=35.8;GIV Gai AS conf=n
O=C(O)c1cnc(N2CCC(Cc3ccccc3)CC2)c(NS(=O)(=O)c2ccccc2)c1	n
Cc1ccc2c(c1)-c1c(c(C(=O)N3CCN(c4cc(C)ccc4C)CC3)nn1C)CS2	42.2	GIV-Gai FP conf=36.2;GIV Gai AS conf=n
Cn1nc(C(=O)N2CCN(c3ccc(Cl)cc3)CC2)c2c1-c1ccccc1SC2	n
Cn1nc(C(=O)N2CCCCC2)c2c1-c1ccccc1SC2	n
Cn1cc(/C=C/c2nc3ccccc3c(=O)n2-c2ccc([N+](=O)[O-])cc2)c2ccccc21	n
Cc1ccc(-n2c(/C=C/c3c(C)n(C)c4ccccc34)nc3ccccc3c2=O)cc1	n	GIV-Gai FP conf=n;GIV Gai AS conf=n
CCn1c(C)c(/C=C/c2nc3ccccc3c(=O)n2CCCO)c2ccccc21	n
CCOc1ccccc1NC(=O)COC	n
CCc1ccc(C(=O)C2=CN(c3ccc(OC)cc3)c3ccc(F)cc3S2(=O)=O)cc1	n
COC(=O)C1=C(Nc2ccc3c(c2)OCCO3)CSC1	n
Cc1c(C(=O)NC(C)C)oc2c1-c1[nH]ncc1CC2	68.5	GIV-Gai FP conf=51.2;GIV Gai AS conf=26222
Cc1c(C(=O)O)oc2c1-c1[nH]ncc1CC2	n
Cc1cc(C)cc(NC(=O)c2oc3c(c2C)-c2[nH]ncc2CC3)c1	n
CCOC(=O)c1[nH]c(C)c(CCC(=O)N2CCCC(C(=O)NCCCOC)C2)c1C (stereo not given)	n
Cc1ccc(C)c(NC(=O)c2cnc3ccccn3c2=O)c1	n
CCCCNC(=O)c1cc2c(C)nn(-c3ccc(F)cc3)c2s1	n
O=C(C1CCN(c2nccc3c2ccn3Cc2ccccc2)CC1)N1CCN(c2ccccc2F)CC1	n
CNC(=O)COc1ccc(S(=O)(=O)N2CCOCC2)cc1C	n
COC(=O)CSc1ccc2c3c(cccc13)C(=O)c1ccccc1-2	67.7	GIV-Gai FP conf=22.4;GIV Gai AS conf=n
COC(=O)c1cccc2c1C(=O)c1ccccc1-2	n
COC(=O)CSc1cccc2c1C(=O)CC2c1ccccc1 (stereo not given)	n
CCOC(=O)C1=C(N)OC2=C(C(=O)CCC2)C1c1cc(Br)c(C)s1 (stereo not given)	n
